Reference: PubChem BioAssay (NCI)
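Five concentrations, 48 hours, 96-well plates. Abbreviation: GI50, concentration required for 50% inhibition of growth. The concentration for full growth arrest is given as TGI.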

How the values were obtained:
Assay in all cases: NCI-60 cell line screen, 48 h
[1] = system: SNB-19 CNS
[2] = system: MALME-3M melanoma
[3] = system: T-47D breast
[4] = system: SNB-75 CNS
[5] = system: NCI-H23 lung
[6] = system: ACHN renal
[7] = system: 786-0 renal
[8] = system: NCI-H322M lung
[9] = system: CCRF-CEM leukemia
[10] = system: SK-MEL-5 melanoma
[11] = system: CAKI-1 renal
[12] = system: MCF7 breast
[13] = system: SN12C renal
[14] = system: UACC-62 melanoma
[15] = system: RXF 393 renal
[16] = system: NCI-H226 lung
[17] = system: HCT-116 colon
[18] = system: COLO 205 colon
[19] = system: SK-MEL-2 melanoma
[20] = system: HCT-15 colon
[21] = system: PC-3 prostate
[22] = system: A549 NSCLC
[23] = system: UACC-257 melanoma
[24] = system: LOX IMVI melanoma
[25] = system: U251 CNS
[26] = system: UO-31 renal
[27] = system: MDA-N
[28] = system: SK-MEL-28 melanoma
[29] = system: SW-620 colon
[30] = system: DU-145 prostate
[31] = system: HT29 colon
[32] = system: NCI-H460 lung
[33] = system: HOP-92 NSCLC
[34] = system: BT-549 breast
[35] = system: MDA-MB-435
[36] = system: NCI/ADR-RES ovarian
[37] = system: SF-268 CNS
[38] = system: IGROV1 ovarian
[39] = system: OVCAR-8 ovarian
[40] = system: TK-10 renal
[41] = system: HCC-2998 colon
[42] = system: SR leukemia
[43] = system: HOP-62 NSCLC
[44] = system: MOLT-4 leukemia
[45] = system: OVCAR-4 ovarian
[46] = system: MDA-MB-231 breast
[47] = system: SF-295 CNS
[48] = system: HS 578T breast
[49] = system: EKVX NSCLC
[50] = system: KM12 colon

`CCOP(OCC)c1cn(CCCC(=O)O)nn1` was tested, and the GI50 [1] was > 100 µM, the TGI [1] was > 100 µM and the GI50 [2] was > 100 µM. The TGI [2] was > 100 µM, the GI50 [3] was > 100 µM and the TGI [3] was > 100 µM. The GI50 [4] was > 100 µM, the TGI [4] was > 100 µM and the GI50 [5] was > 100 µM. The TGI [5] was > 100 µM, the GI50 [6] was > 100 µM and the TGI [6] was > 100 µM. For the same compound, the GI50 [7] was > 100 µM, the TGI [7] was > 100 µM and the GI50 [8] was > 100 µM. The TGI [8] was > 100 µM, the GI50 [9] was > 100 µM and the TGI [9] was > 100 µM. For the same compound, the GI50 [10] was > 100 µM, the TGI [10] was > 100 µM and the GI50 [11] was > 100 µM. For the same compound, the TGI [11] was > 100 µM, the GI50 [12] was > 100 µM and the TGI [12] was > 100 µM. For the same compound, the GI50 [13] was > 100 µM, the TGI [13] was > 100 µM and the GI50 [14] was > 100 µM. For the same compound, the TGI [14] was > 100 µM, the GI50 [15] was > 100 µM and the TGI [15] was > 100 µM. The GI50 [16] was > 100 µM, the TGI [16] was > 100 µM and the GI50 [17] was > 100 µM. The TGI [17] was > 100 µM, the GI50 [18] was > 100 µM and the TGI [18] was > 100 µM. The GI50 [19] was > 100 µM, the TGI [19] was > 100 µM and the GI50 [20] was > 100 µM. The TGI [20] was > 100 µM, the GI50 [21] was > 100 µM and the TGI [21] was > 100 µM. The GI50 [22] was > 100 µM, the TGI [22] was > 100 µM and the GI50 [23] was > 100 µM. The TGI [23] was > 100 µM, the GI50 [24] was > 100 µM and the TGI [24] was > 100 µM. The GI50 [25] was > 100 µM, the TGI [25] was > 100 µM and the GI50 [26] was > 100 µM. The TGI [26] was > 100 µM, the GI50 [27] was > 100 µM and the TGI [27] was > 100 µM. The GI50 [28] was > 100 µM, the TGI [28] was > 100 µM and the GI50 [29] was > 100 µM. For the same compound, the TGI [29] was > 100 µM, the GI50 [30] was > 100 µM and the TGI [30] was > 100 µM. The GI50 [31] was > 100 µM, the TGI [31] was > 100 µM and the GI50 [32] was > 100 µM. The TGI [32] was > 100 µM, the GI50 [33] was > 100 µM and the TGI [33] was > 100 µM. For the same compound, the GI50 [34] was > 100 µM, the TGI [34] was > 100 µM and the GI50 [35] was > 100 µM. For the same compound, the TGI [35] was > 100 µM, the GI50 [36] was > 100 µM and the TGI [36] was > 100 µM. For the same compound, the GI50 [37] was > 100 µM, the TGI [37] was > 100 µM and the GI50 [38] was > 100 µM. The TGI [38] was > 100 µM, the GI50 [39] was > 100 µM and the TGI [39] was > 100 µM. For the same compound, the GI50 [40] was > 100 µM, the TGI [40] was > 100 µM and the GI50 [41] was > 100 µM. For the same compound, the TGI [41] was > 100 µM, the GI50 [42] was > 100 µM and the TGI [42] was > 100 µM. For the same compound, the GI50 [43] was > 100 µM, the TGI [43] was > 100 µM and the GI50 [44] was > 100 µM. For the same compound, the TGI [44] was > 100 µM, the GI50 [45] was > 100 µM and the TGI [45] was > 100 µM. For the same compound, the GI50 [46] was > 100 µM, the TGI [46] was > 100 µM and the GI50 [47] was > 100 µM. The TGI [47] was > 100 µM, the GI50 [48] was > 100 µM and the TGI [48] was > 100 µM. For the same compound, the GI50 [49] was > 100 µM, the TGI [49] was > 100 µM and the GI50 [50] was > 100 µM. For the same compound, the TGI [50] was > 100 µM.
